Experiment: Phase 1 open-label crossover drug-drug interaction study: steady-state plasma pharmacokinetics of omeprazole without and with ethyl eicosapentaenoate
Conditions: omeprazole alone 40 mg daily, day 7; median (min, max)
Experimental: Eligibility assessments and clinical laboratory testing were performed within a 28-day screening period. All eligible subjects received the same treatment. […] On days 12-29, subjects received oral doses of 4 g ethyl eicosapentaenoate (2 liquid-filled 1 g gelatin capsules, twice daily), with or following the morning and evening meals. Treatments were self-administered when subjects were away from the study site, and by study personnel during scheduled visits.
Eligible subjects were healthy nonsmoking men and women between the ages of 19 and 55 years with a body mass index >18 and ≦35 kg/m^2 and in good health as determined by medical history and medical examination. Women who were pregnant, nursing, or planning a pregnancy were excluded; female subjects of childbearing potential were required to use an acceptable method of birth control. Subjects were prohibited from ingesting medications and supplements that contained EPA and/or docosahexaenoic acid (DHA), fish meals, foods fortified with EPA and/or DHA, lipid-medications and dietary supplements with known or potential lipid-altering effects including statins, niacin >200 mg/day, fibrates, ezetimibe, and bile acid sequestrants or medications or supplements that may influence the measurements of EPA concentrations in plasma until after the last PK sample collection. […]

For COc1ccc2[nH]c([S+]([O-])Cc3ncc(C)c(OC)c3C)nc2c1 (stereo not shown) [Omeprazole, omeprazole], the Tmax of omeprazole was 1.5 (1.0, 6.0) h.

— US20150073050A1, “CO-ADMINISTRATION OF OMEPRAZOLE AND EICOSAPENTAENOIC ACID OR A DERIVATIVE THEREOF” (Amarin Pharmaceuticals Ireland Limited, priority 2013, published 2015)
